Laboratory results as given in patent US10556914B2, “Substituted isoxazolopyridazinones and isothiazolopyridazinones and methods of use” (AbbVie Inc., priority 2015, dated 2020).
pEC50: −log10 of the molar value.

The chains behind the UniProt entries cited, without tags or fusion partners. Residues count along the entry.
UniProt O88871, 41-940: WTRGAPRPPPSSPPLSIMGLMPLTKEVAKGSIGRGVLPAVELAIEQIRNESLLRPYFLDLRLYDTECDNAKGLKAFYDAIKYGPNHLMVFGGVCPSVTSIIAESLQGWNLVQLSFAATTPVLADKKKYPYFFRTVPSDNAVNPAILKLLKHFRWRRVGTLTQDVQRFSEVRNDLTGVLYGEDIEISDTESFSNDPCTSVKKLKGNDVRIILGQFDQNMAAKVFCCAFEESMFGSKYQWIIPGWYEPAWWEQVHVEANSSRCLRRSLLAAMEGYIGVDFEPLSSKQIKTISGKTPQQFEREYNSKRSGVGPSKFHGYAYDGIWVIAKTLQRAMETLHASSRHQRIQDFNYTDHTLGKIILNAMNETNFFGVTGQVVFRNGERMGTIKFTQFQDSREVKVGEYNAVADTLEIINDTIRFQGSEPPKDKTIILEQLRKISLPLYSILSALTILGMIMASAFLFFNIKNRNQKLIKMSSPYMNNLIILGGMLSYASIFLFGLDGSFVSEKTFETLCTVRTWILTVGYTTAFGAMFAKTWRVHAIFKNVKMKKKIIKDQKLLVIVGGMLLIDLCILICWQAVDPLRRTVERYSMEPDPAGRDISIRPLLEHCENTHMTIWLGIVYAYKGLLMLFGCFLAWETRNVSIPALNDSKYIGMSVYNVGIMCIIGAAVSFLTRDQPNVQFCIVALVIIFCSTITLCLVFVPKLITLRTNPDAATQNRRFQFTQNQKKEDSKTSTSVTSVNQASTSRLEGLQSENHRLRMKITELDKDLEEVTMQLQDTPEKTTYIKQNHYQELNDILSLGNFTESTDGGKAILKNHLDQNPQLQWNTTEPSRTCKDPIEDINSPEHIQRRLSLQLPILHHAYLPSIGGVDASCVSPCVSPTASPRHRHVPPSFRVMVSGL
UniProt Q9Z0U4, 17-960: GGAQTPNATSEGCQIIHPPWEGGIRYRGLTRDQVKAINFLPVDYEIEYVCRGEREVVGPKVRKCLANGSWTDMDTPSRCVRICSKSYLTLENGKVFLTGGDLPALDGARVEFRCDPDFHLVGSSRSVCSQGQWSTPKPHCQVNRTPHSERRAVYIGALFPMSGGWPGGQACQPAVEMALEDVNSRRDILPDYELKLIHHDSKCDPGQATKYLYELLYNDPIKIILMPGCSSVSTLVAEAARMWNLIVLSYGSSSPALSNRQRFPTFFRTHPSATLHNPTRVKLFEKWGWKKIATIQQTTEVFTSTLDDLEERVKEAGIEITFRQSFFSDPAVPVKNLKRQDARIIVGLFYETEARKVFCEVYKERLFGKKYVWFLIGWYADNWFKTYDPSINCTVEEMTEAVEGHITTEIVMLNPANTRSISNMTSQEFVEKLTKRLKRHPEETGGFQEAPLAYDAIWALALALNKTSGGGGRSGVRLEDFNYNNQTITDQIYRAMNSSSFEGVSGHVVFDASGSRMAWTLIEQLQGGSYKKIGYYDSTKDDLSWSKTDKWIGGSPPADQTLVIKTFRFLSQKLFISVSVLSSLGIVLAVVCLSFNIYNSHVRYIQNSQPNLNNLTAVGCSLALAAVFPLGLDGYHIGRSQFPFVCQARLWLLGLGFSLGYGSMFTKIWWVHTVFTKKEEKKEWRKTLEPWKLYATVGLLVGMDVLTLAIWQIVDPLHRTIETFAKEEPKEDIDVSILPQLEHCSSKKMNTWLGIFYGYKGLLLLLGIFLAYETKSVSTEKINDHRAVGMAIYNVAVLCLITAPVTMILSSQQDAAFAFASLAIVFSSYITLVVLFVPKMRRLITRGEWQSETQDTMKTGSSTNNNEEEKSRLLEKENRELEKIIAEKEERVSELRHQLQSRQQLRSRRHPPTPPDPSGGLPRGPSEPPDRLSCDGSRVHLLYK

Target: GABA-B receptor (Rattus norvegicus (Rat), UniProt O88871+Q9Z0U4)
Assay: [35S]GTPgS Binding Assay (rat brain cortex membranes, native receptor)
Type: biochemical
Details: rat cortical membranes; in the presence of 1 μM GABA (EC25); basal binding 0%, maximal binding (1 mM GABA) 100%
Procedure: Preparation of Rat Brain Membranes for Native Receptor Assays
Membranes from rat brain cortex were prepared as described in detail by Olpe et al. and stored at concentrations of 1.66 mg/mL protein at −80° C. until required. (Olpe, H.-R, et al. Eur J Pharmacol 1990; 187: 27-38).
[^35S]GTPgS Binding Assay
The composition of the assay mixtures [in a final volume of 200 μL in 96-well U-bottom plates (Greiner) was as follows: 50 mM Tris-HCl buffer, pH 7.7, 10 mM MgCl2, 0.2 mM EGTA, 2 mM CaCl2, 100 mM NaCl, 20 μM guanosine 5′-diphosphate (Sigma), 0.3 nM [^35S]GTPgS (1250 Ci/mmol (PerkinElmer)), and the test compounds at increasing concentrations (from 10 nM up to 10 μM), 10 μg of rat cortical membranes, and a concentration of 1 μM GABA, that has been observed in previous experiments to correspond to the EC25, a concentration that gives 25% of the maximal response of GABA. The samples were incubated at room temperature for 60 minutes on a shaker. The incubation was stopped by rapid vacuum filtration over glass-fiber filter plates (UniFilter-96 well, GF/B membrane plates, PerkinElmer) using a 96-well plate harvester (TOMTEK© Harvester). […] Nonspecific binding was measured in the presence of unlabeled 10 μM of GTPgS (Millipore) and without GABA. Basal binding was measured in the absence of 1 μM GABA, and maximal binding was measured in the presence of GABA using 1 mM GABA concentrations. […]

pEC50: 5.33
Substance: N-(3-{5-[4-fluoro-3-(trifluoromethyl)benzyl]-3-methyl-4-oxo-4,5-dihydro[1,2]oxazolo[4,5-d]pyridazin-7-yl}phenyl)acetamide [Example 41]
